Measured values from ChEMBL document CHEMBL1667752 (Eur J Med Chem, 2011).

Chains of the proteins cited; added tags and fusions are not shown.
UniProt P21554, whole entry: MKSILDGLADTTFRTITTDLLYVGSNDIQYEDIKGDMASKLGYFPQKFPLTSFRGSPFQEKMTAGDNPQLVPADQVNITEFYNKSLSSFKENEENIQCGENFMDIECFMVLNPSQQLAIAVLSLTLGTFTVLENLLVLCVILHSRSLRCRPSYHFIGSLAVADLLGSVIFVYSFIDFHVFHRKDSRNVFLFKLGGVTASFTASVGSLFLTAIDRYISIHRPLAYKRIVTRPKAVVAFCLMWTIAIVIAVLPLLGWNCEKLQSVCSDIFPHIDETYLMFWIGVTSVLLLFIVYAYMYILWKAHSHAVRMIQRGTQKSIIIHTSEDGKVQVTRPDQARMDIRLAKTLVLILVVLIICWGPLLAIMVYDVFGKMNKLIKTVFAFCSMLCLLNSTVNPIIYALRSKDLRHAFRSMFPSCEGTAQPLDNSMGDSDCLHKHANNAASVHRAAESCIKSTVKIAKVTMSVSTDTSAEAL

Biological target: Cannabinoid receptor 1 (Homo sapiens, UniProt P21554)
Test: Displacement of [3H]CP 55940 from human CB1 receptor in cell free system

## Cc1ccc(Cn2nc(C(=O)N[C@@H]3C(C)(C)[C@@H]4CC[C@@]3(C)C4)cc2-c2ccc(Cl)c(C)c2)cc1 [SR-144528]
  Ki: 2890 nM
